Reference: US5084142A, “Separation of tertiary butyl alcohol from water by azeotropic or extractive distillation” (priority 1991, dated 1992)

Assay: Extractive agents evaluated in vapor-liquid equilibrium still (separating water from t-butanol)
Assay type: physicochemical
Conditions: extractive agent

Relative Volatility (water as overhead) | Relative Volatility (brings t-butanol out as overhead (*)) | Substance
1.32 |  | 2-Hydroxyacetophenone
 | 1.32 | Dipropylene glycol
